In patent US20260384447A1, “INHIBITORS OF NLRP3” (published 2026) one finds IC50 data, which are given here for twelve compounds.

Sequences of proteins named here, by UniProt entry; tags and fusion partners are left off.
UniProt Q96P20, whole entry: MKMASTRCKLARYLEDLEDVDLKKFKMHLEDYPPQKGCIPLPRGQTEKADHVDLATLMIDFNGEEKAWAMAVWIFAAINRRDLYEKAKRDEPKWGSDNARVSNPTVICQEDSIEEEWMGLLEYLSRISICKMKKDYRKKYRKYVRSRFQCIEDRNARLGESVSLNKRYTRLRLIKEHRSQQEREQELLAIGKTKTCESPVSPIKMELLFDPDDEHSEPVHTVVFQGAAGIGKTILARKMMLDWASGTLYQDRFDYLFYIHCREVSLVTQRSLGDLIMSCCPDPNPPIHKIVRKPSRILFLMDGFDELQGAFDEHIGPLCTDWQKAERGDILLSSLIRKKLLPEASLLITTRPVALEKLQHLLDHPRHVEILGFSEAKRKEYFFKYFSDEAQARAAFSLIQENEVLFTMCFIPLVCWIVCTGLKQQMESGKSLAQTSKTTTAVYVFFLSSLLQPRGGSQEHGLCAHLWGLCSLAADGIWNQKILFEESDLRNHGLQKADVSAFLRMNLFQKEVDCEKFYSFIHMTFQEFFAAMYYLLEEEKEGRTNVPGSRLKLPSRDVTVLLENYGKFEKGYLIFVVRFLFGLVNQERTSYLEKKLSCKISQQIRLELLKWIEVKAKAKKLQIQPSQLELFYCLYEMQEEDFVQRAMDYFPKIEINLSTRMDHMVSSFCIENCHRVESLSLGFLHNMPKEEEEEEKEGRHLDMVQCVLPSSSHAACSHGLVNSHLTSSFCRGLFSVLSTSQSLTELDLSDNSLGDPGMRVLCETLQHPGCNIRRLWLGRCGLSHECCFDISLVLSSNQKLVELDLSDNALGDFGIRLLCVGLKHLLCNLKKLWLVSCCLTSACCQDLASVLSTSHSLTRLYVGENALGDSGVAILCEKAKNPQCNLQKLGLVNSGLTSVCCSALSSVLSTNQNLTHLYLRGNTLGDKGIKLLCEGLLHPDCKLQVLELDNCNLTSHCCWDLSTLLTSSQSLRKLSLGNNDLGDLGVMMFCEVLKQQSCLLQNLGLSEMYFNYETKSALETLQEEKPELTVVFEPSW

Structures are written as SMILES. A value given as a limit tells only on which side of the number the result lay.

Assay [1] addresses T1, NLRP3 (Homo sapiens, UniProt Q96P20). Description: Human Whole Blood IL-1β Release Assay. The settings on record: read-out: Human whole blood IL-1β Assay IC50, 1 μg/ml LPS, nigericin 10 μM, IL-1β AlphaLisa, 37 °C. (Bead proximity is the source of the signal in Alpha formats.)
For assay [2], the target named is T1, NLRP3. The assay is described as follows: THP-1 Cells Pyroptosis Assay. The settings on record: read-out: THP-1 pyroptosis Assay IC50, 1.0 μg/ml LPS, nigericin 5 μM, resazurin readout, 37 °C. In general terms: Resazurin is reduced to fluorescent resorufin, in cell work by metabolically active cells.

Turning to `Cc1cc(C)c(-c2cc3c(nn2)N([C@@H]2CCCC[C@H]2O)CCO3)c(O)c1`, the results for the IC50 at NLRP3 [1] and on NLRP3 [2] were 140 nM and 46 nM, respectively.
In the case of `Cc1cc(C#N)cc(O)c1-c1cc2c(nn1)N([C@H]1C[C@@](C)(O)C1)CCO2`, the IC50 on NLRP3 [1] was 546 nM; at NLRP3 [2], above 1000 nM.
In the case of `CCN1C[C@@H](O)C[C@@H](N2CCOc3cc(-c4c(C)cc(C#N)cc4O)nnc32)C1`, the IC50 at NLRP3 [1] stood at 151 nM; on NLRP3 [2], 62 nM.
Consider `Cc1c(-c2ccc3c(c2O)CCO3)nnc2c1OCCN2[C@@H]1CCCC[C@H]1O`, for which the results for the IC50 at NLRP3 [1] and at NLRP3 [2] were 69 nM and 42 nM, respectively.
On to `Cc1cc(OC(F)(F)F)cc(O)c1-c1cc2c(nn1)N([C@@H]1CCCC[C@H]1O)CCO2`, for which, at NLRP3 [2], the IC50 was 110 nM.
Regarding `Cc1cc2c(c(O)c1-c1cc3c(nn1)N([C@@H]1CCOC[C@H]1O)CCO3)CCO2`, the IC50 at NLRP3 [2] came out at 49 nM.
Turning to `Cc1cc2c(c(O)c1-c1cc3c(nn1)N([C@@H]1CCC[C@H](O)C1)CCO3)CCO2`, the IC50 at NLRP3 [2] is 56 nM.
In the case of `Cc1cc(C(F)(F)F)cc(O)c1-c1cc2c(nn1)N([C@@H]1CCCC[C@H]1O)CCO2`, the IC50 on NLRP3 [1] is 69 nM; on NLRP3 [2] it was 30 nM.
As to `Cc1cc(C#N)cc(O)c1-c1cc2c(nn1)N([C@@H]1CCCC[C@H]1O)CCO2`, at NLRP3 [2], the IC50 came out at 81 nM.
The same measure, in the same setting: with `CCN1CC[C@@H](N2CCOc3cc(-c4c(C)cc(C#N)cc4O)nnc32)C1` the figure was 120 nM; with `Cc1cc2c(c(O)c1-c1cc3c(nn1)N([C@H]1CC[C@H](O)CC1)CCO3)CCO2`, 273 nM.
`CCN1CCC[C@@H](N2CCOc3c2nnc(-c2ccc(C#N)cc2O)c3C)C1`: the IC50 on NLRP3 [1] turned out to be 56 nM; on NLRP3 [2], 38 nM.
